Values of other authors, collected in patent publication US20220023323A1, “RESETTING BIOLOGICAL PATHWAYS FOR DEFENDING AGAINST AND REPAIRING DETERIORATION FROM HUMAN AGING” (priority 2015, published 2022).

Conditions: in vivo; cited from earlier work

CN(C)C(=N)N=C(N)N [metformin]
time to steady state: one to two
